Laboratory results from patent US20160067347A1, “APJ RECEPTOR AGONISTS AND USES THEREOF” (AMGEN INC., priority 2012, published 2016).

Target: T1, human APJ (Homo sapiens, UniProt P35414)
T1 construct: expressed in transfected cells
T1 sequence (P35414 1-380): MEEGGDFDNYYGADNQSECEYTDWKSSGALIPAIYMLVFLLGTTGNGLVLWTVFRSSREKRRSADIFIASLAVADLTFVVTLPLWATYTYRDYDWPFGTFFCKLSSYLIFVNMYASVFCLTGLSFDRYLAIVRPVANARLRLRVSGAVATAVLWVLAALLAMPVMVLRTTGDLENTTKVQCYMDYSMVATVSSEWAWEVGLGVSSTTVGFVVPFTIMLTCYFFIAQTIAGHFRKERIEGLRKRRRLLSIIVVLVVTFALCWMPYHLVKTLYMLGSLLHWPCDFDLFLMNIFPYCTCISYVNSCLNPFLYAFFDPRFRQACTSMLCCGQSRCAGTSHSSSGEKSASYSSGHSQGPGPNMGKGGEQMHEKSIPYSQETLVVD
Assay: cAMP assay, stable CHO cell line expressing human APJ
Type: cell-based
Conditions: FIG. 5; cAMP seen with either human or rat APJ stable cell lines
Procedure: Stable CHO cell lines expressing APJ were used for cAMP assays. The cells were incubated with stimulation buffer containing HANK's buffer, forskolin and 0.5 mM IBMX in the absence or presence of various concentrations' of peptides at 37° C. for 45 min. The cAMP level was determined using a cyclic AMP kit (DiscoverX) according to the manufacturer's instructions.
Additionally, the stimulation of cAMP can be seen using either human or rat APJ stable cell lines.

3-((2-(3-(mPEG(20kDa))propylamino)-2-oxoethyl)thio)propanamide-[Leu65;hArg68;Cha69;Oic74;Nle75;4-Cl-F77]Apelin-13(65-77) [SEQ ID NO: 26]
agonist activity relative to pyr apelin-13 (SEQ ID NO: 128): potent and act as a full agonist
